Molecular target: T1, mouse TP receptor (Mus musculus, UniProt P30987)
T1 sequence (P30987 1-341): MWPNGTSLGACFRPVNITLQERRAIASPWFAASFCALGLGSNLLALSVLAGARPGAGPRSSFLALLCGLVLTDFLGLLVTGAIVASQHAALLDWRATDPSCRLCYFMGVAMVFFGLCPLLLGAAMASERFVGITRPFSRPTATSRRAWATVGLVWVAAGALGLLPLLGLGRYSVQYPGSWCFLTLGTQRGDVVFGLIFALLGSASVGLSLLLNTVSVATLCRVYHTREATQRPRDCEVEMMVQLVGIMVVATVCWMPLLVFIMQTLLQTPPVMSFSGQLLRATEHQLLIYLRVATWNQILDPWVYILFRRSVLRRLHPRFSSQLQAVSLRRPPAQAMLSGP
Test: IP-One functional assay (HTRF), mouse TP receptor antagonism
Conditions: not given

SMILES | IC50 [nM]
CC1=C(O)CC(Cc2cccc3c2CCC(NS(=O)(=O)c2ccc(Cl)cc2)C3)C1=O (stereo not shown) [Cpd 51559] | < 10
COc1ccc(C2=C(O)CC(Cc3cccc4c3CCC(NS(=O)(=O)c3ccc(Cl)cc3)C4)C2=O)cc1 (stereo not shown) [Cpd 51575] | < 10
O=C(O)CCc1cccc2c1CCC(NS(=O)(=O)c1ccc(Cl)cc1)C2 (stereo not shown) [Cpd 51280, reference compound] | < 10
O=C1C(c2ccc(F)cc2)=C(O)CC1Cc1cccc2c1CCC(NS(=O)(=O)c1ccc(Cl)cc1)C2 (stereo not shown) [Cpd 51574] | < 10
Cc1cccc(C)c1C1=C(O)CC(Cc2cccc3c2CCC(NS(=O)(=O)c2ccc(Cl)cc2)C3)C1=O (stereo not shown) [Cpd 51580] | < 10
O=C1C(c2ccccc2)=C(O)CC1Cc1cccc2c1CCC(NS(=O)(=O)c1ccc(Cl)cc1)C2 (stereo not shown) [Cpd 51548] | < 10

Molecular target: T2, human TP receptor (Homo sapiens, UniProt P21731)
T2 construct: expressed in transfected cells
T2 sequence (P21731 1-343): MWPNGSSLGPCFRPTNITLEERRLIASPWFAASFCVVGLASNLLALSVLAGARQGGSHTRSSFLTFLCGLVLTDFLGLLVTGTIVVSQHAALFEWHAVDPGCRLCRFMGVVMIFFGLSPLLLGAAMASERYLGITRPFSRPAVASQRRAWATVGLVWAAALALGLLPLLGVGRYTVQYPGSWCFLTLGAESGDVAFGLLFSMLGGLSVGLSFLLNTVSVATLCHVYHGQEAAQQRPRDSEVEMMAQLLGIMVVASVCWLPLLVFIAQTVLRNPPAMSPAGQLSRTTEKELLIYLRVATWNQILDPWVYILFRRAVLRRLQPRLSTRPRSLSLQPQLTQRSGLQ
Test: IP-One functional assay (HTRF), human TP receptor antagonism
Assay type: cell-based
Conditions: IPOne assay; QBI-HEK 293A cells stably transfected with human TP receptor; agonist I-BOP 0.2 or 0.8 nM

SMILES | IC50 [nM]
O=C(O)CCc1cccc2c1CCC(NS(=O)(=O)c1ccc(Cl)cc1)C2 (stereo not shown) [Cpd 51280, reference compound] | 15.7

Reference: patent US9643919B2, “Cycloalkyl-dione derivatives and methods of their use” (The Trustees of The University of Pennsylvania, priority 2013, dated 2017)
